Each structure is given as a SMILES string.

By UniProt entry, the sequences of proteins in these tests, tags left out.
UniProt Q96KQ7, whole entry: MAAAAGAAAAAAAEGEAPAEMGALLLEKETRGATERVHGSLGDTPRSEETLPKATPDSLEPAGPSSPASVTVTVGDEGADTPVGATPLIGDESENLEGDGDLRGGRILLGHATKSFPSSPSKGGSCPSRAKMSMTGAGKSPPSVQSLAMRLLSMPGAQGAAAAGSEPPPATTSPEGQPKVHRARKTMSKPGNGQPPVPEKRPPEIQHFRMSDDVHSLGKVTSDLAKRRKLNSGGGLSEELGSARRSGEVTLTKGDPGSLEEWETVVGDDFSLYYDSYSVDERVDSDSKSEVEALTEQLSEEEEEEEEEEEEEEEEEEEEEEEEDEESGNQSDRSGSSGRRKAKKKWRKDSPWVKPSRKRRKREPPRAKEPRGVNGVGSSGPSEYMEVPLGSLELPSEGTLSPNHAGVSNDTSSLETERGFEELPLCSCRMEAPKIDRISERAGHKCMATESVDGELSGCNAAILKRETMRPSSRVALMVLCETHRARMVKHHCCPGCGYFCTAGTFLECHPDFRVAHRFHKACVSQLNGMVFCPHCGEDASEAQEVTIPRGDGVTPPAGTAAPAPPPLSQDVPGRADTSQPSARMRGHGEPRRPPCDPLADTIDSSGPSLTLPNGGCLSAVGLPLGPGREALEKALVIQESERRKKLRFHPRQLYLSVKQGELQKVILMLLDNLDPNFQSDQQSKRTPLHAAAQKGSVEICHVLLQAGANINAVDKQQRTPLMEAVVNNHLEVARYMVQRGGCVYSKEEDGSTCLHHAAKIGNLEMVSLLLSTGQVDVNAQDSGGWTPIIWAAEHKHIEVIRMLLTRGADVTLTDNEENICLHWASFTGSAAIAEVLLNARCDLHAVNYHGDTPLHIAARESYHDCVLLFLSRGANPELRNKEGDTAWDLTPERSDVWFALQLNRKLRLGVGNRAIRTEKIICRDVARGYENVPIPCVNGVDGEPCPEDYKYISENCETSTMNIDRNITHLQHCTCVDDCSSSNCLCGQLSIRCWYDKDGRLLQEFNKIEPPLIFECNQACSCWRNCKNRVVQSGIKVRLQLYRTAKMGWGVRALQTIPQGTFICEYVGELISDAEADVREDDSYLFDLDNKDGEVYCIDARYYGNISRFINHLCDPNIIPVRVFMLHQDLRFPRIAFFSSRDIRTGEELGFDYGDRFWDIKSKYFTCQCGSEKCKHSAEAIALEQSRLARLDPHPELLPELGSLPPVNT
UniProt P26358, whole entry: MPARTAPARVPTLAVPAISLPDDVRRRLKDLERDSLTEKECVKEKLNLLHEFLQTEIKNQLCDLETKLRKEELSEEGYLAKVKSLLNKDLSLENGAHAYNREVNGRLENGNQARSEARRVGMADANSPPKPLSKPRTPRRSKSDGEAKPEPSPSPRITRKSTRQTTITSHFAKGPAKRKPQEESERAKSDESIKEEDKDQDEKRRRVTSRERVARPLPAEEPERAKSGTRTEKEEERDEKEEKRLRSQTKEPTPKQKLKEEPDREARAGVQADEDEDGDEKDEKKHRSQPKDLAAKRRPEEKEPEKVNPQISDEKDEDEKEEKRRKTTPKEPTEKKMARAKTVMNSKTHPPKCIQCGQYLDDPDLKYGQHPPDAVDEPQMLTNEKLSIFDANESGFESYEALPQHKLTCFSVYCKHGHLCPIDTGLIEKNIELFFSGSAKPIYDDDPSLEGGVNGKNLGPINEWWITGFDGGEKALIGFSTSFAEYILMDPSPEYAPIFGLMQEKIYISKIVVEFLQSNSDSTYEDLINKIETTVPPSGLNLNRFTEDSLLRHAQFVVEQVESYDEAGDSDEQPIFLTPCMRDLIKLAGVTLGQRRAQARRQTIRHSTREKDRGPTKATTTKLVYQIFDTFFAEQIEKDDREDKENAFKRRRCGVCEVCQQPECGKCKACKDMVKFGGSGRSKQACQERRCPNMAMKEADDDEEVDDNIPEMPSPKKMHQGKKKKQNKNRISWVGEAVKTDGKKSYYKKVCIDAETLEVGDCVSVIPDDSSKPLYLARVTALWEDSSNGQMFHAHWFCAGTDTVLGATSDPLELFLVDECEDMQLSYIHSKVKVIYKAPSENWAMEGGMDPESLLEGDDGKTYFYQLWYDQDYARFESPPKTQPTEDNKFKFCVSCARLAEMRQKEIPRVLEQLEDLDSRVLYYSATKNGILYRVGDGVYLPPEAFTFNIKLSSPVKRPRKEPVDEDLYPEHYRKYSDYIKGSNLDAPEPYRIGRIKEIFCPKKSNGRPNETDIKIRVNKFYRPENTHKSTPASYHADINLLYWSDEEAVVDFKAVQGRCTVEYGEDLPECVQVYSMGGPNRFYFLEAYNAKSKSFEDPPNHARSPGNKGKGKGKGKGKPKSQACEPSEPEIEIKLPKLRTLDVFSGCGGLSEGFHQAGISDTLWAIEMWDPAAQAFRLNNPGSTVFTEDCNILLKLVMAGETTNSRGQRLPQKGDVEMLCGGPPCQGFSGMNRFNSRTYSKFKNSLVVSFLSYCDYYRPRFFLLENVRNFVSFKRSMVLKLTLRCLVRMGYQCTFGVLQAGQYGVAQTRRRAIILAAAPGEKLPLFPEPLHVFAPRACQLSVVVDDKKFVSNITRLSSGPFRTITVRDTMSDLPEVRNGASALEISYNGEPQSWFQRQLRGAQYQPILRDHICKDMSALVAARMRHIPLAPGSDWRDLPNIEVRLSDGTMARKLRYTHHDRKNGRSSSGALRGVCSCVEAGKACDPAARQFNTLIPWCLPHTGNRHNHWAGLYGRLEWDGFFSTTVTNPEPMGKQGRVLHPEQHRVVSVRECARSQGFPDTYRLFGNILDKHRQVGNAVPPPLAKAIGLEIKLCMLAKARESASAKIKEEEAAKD

In one assay the target is human G9a enzyme (Homo sapiens, UniProt Q96KQ7). The experiment in a line: G9a enzyme activity assay (TR-FRET). Format: biochemical. Particulars: read-out: G9a IC50, 1 hour at room temperature. A general note: In TR-FRET formats the signal depends on donor and acceptor labels being close together.
The target of another assay is human DNMT1 (Homo sapiens, UniProt P26358). The experiment in a line: DNMT1 enzyme activity assay (TR-FRET, EPIgeneous methyltransferase assay). Format: biochemical. Particulars: read-out: DNMT1 IC50; human DNMT1, 15 minutes at 37° C.

The IC50 is the point on the concentration scale where inhibition reaches its midpoint. `CNC1CCC12CCN(c1cc(-c3ccc(C)o3)nc3cc(OCCCN4CCCC4)c(OC)cc13)CC2` (centres unmarked): the values for the IC50 at human G9a enzyme and on human DNMT1 were 500 to 1000 nM and 1000 to 10000 nM, respectively.

The values are drawn from patent publication US20190127354A1, “2,4,6,7-TETRASUBSTITUTED QUINOLINE COMPOUNDS AS INHIBITORS OF DNA […]” (FUNDACIÓN PARA LA INVESTIGACIÓN MÉDICA APLICADA, priority 2015, published 2019).
